The values that follow come from patent publication US20160318844A1, “PROSTACYCLIN COMPOUNDS, COMPOSITIONS AND METHODS OF USE THEREOF” (Insmed Incorporated, priority 2015, published 2016).

Series [1] in a line: Treprostinil alkyl ester conversion to treprostinil in dog lung tissue homogenate. It counts as in vitro ADME. The following applies: 37° C. On the procedure: (§1) Treprostinil alkyl ester (C10-TR, C12-TR, C14-TR) conversion to treprostinil was also measured in the presence of rat, dog and monkey lung tissue homogenate at 37° C. Here, data were calculated based on fit of exponential increase to the maximum (experiments performed in duplicate). The results of this study are provided below in Table 2A and FIG. 37. […] In this experiment, treprostinil alkyl esters were incubated for 4 hours at a final concentration of 200 nM in 1 mL of tissue homogenate prepared in water and normalized to 10 mg/mL of protein.
(§2) C12-TR was incubated for 4 hours at a final concentration of 200 nM in 1 mL of tissue homogenate prepared in water and normalized to 10 mg/mL of protein. Both FIG. 37 experiments (eft and right graphs) were performed in duplicate and the lines represent nonlinear exponential regression assuming 1 phase decay. Table 2A. Rate of treprostinil alkyl ester conversion in the presence of rat, dog or monkey lung tissue homogenate.

Series [2] can be described thus: Treprostinil alkyl ester conversion to treprostinil in rat lung tissue homogenate. It counts as in vitro ADME. The settings on record: 37° C., 200 nM, 10 mg/mL of protein. On the procedure:
as §1, §2

The nature of series [3]: Treprostinil alkyl ester conversion to treprostinil in monkey lung tissue homogenate. It counts as in vitro ADME. The settings on record: 37° C. Here is the method:
as §1, §2

A short description of series [4]: Particle size characterization of treprostinil compositions (QELS). The settings on record: composition of Table 3 (squalane, Chol-PEG2k). It counts as physicochemical.

In the case of “treprostinil decyl ester [Compound C10-TR]”, the “Rate of treprostinil alkyl ester conversion” value in series [1] was 10.5 nmOL/h * g of protein; in series [2], 7.3 nmOL/h * g of protein; in series [3], 4.6 nmOL/h * g of protein.
“treprostinil pentyl ester [Compound C5-TR]” returned an average particle diameter in series [4] of 316 nm.
